{
  "sequences": {"note": "By UniProt entry, the sequences of proteins in these tests, tags left out.", "UniProt P50750, whole entry": "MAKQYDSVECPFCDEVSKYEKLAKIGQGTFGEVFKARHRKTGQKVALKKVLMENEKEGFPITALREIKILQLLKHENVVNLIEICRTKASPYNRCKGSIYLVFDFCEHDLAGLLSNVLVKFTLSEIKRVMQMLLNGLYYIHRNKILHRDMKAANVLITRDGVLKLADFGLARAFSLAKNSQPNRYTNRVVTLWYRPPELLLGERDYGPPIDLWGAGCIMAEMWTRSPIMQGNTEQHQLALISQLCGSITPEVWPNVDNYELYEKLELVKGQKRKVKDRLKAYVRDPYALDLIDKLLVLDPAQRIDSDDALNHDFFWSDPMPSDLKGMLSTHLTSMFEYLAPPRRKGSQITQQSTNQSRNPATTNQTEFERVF"},
  "source": "patent US9067888B2",
  "about": "“Inhibitors of protein kinases” (Ingenium Pharmaceuticals GmbH, priority 2010, dated 2015)",
  "target": "CDK9/CycT (Homo sapiens (Human), UniProt P50750)",
  "test": "Kinase activity assay IC50 profile",
  "format": "biochemical",
  "details": "read-out: IC50 CDK9/T1",
  "description": "In vitro kinase assay analysis may be performed using standard techniques described in the art. These techniques are also used by commercial services providers in order to offer in vitro kinase activity assay services, e.g. the assays offered by Millipore Inc. (worldwide website www(dot)millipore.com), ProQinase GmbH (worldwide website www(dot)proqinase.de) and others.\nOn the day of the kinase inhibition assay, 451 μl H2O were added to each well of a set of compound dilution plates. To minimize precipitation, the H2O was added to the plates only a few minutes before the transfer of the compound solutions into the assay plates. The plates were shaken thoroughly, resulting in “compound dilution plates/10%/DMSO” with a concentration of 1×10^−03 M/10% DMSO to 3×10^−08 M/10% DMSO in semilog steps. These plates were used for the transfer of 5 μl compound solution into the “assay plates”. The compound dilution plates were discarded at the end of the working day. For the assays (see below), 5 μl solution from each well of the compound dilution plates were transferred into the assay plates. The final volume of the assay was 50 μl. […]\nThe median value of the counts in column 1 (n=8) of each assay plate was defined as “low control”. This value reflects unspecific binding of radioactivity to the plate in the absence of a protein kinase but in the presence of the substrate. […]",
  "data": [
    {"smiles": "COc1cc(F)ccc1-c1ccnc(NC(=O)[C@H]2CCC[C@@H](NC(C)=O)C2)c1", "note": "(relative stereo) [Example 33, cis-3-Acetamido-N-(4-(4-fluoro-2-methoxyphenyl)pyridin-2-yl)cyclo-hexanecarboxamide]", "values": [
      {"measurement": "IC50", "result": 3, "unit": "nM"}
    ]}
  ]
}
